Measured values: patent US5059627A, “Nerve growth factor secretion inducing composition” (Takeda Chemical Industries, Ltd., priority 1989, dated 1991)

Assay: in vivo
Conditions: mouse, po

| SMILES | LD50 |
| --- | --- |
| COC1=C(OC)C(=O)C(C)=CC1=O [2,3-Dimethoxy-5-methyl-1,4-benzoquinone, 2,3-dimethoxy-5-methyl-1,4-benzoquinone] | > 500 mg/kg |
| COC1=C(OC)C(=O)C(CCCCCCCCCCO)=C(C)C1=O [6-(10-hydroxydecyl)-2,3-dimethoxy-5-methyl-1,4-benzoquinone] | > 1000 mg/kg |
